{"source": "ChEMBL document CHEMBL5120935", "about": "“Synthesis, Anti-Plasmodial Activities, and Mechanistic Insights of 4-Aminoquinoline-Triazolopyrimidine Hybrids” (ACS Med Chem Lett, 2022)", "key": {"[1]": {"species_on_record": "Homo sapiens"}, "[2]": {"species_on_record": "Homo sapiens", "remark": "listed apart in the source"}}, "data": [{"smiles": "Cc1cc(NCCCCCCCCNc2ccnc3cc(Cl)ccc23)n2ncnc2n1", "values": [{"measurement": "log K", "setting": "[1]", "value": 6.38}, {"measurement": "log K", "setting": "[2]", "value": 6.79}]}]}
